The entries are a selection whose mix differs from that of the whole data set. Activity calls are given as the source filed them. Cut-off read from the data, not from the text of the source: active = inhibition above about 13% (passing the limit was not always enough); inactive = the rest.
These compounds were tested against Lon protease (Escherichia coli (strain K12)) (UniProt P0A9M0) (assay: inhibitors of E. coli Lon protease, primary screen, biochemical, fluorescence polarization (AID 602123;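 note: 0% = enzyme with probe and DMSO and 100% = no enzyme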)). Conditions: purified E. coli Lon protease, at 7.94 µM, active compounds read high.

Amino acid sequences for entries named in this document (tags omitted).
UniProt P0A9M0, whole entry: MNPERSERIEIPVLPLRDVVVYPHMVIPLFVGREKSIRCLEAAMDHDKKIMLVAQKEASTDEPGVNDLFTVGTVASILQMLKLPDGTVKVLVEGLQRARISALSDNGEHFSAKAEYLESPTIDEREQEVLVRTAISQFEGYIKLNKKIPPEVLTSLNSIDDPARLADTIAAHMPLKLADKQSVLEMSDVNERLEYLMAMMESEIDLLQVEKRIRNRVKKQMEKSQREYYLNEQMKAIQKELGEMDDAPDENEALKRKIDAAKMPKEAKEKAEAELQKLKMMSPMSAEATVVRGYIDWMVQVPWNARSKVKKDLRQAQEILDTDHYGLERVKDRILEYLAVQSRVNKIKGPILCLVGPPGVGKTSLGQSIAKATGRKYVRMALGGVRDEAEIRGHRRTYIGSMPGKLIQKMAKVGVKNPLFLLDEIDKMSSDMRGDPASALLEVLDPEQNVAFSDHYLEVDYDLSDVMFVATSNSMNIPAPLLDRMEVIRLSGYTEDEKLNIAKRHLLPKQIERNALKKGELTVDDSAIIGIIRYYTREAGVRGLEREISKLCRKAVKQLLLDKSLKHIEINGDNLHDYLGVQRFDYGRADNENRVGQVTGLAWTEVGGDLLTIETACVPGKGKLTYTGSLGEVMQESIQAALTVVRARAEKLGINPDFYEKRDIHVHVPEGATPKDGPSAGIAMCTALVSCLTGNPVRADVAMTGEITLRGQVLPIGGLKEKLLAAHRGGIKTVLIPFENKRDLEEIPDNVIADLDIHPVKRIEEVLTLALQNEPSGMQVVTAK

Compound | inhibition
CCC(=O)N(c1ccccc1)C1(COC)CCN(CCn2nnn(CC)c2=O)CC1 | inactive: -7.85%
CCC(=O)N(c1ccccc1)C1(COC)CCN(CCc2cccs2)CC1 | inactive: -9.88%
